{"sequences": {"note": "By UniProt entry, the sequences of proteins in these tests, tags left out. Where a name states a change or a piece, a line headed by the entry shows the natural chain unless it says otherwise.", "UniProt P33032": "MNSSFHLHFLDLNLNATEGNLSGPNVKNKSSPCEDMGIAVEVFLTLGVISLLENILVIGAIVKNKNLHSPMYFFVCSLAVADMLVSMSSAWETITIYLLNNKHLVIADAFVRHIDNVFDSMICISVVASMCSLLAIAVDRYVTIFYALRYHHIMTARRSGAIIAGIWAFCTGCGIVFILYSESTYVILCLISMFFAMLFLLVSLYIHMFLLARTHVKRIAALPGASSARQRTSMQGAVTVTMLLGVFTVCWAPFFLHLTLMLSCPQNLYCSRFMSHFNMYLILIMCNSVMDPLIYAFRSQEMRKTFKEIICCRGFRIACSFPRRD"}, "source": "patent US8815577B2", "about": "“Assay electrode having immobilized lipid/protein layers, methods of making the same and methods of using the same for luminescence test measurements” (Meso Scale Technologies, LLC, priority 2001, dated 2014)", "molecular_target": "melanocortin 5 receptor (MC5) (Homo sapiens, UniProt P33032)", "details": "read-out: binding constant (EC50) for competition with NDP-α-MSH-TAG; 120 nM NDP-α-MSH-TAG; MC5 membranes captured on Pokeweed Mitogen", "note": "pEC50: −log10 of the molar value."}
{"substance": "[Nle4,D-Phe7]-α-melanocyte-stimulating hormone [NDP-α-MSH]", "values": [{"measurement": "pEC50", "value": 8.49}]}
